This list holds what a sample rich in strong results left over.

For the test, the target named is T1, Protein deacetylase HDAC6 (Homo sapiens) (UniProt Q9UBN7).
T1 sequence (whole entry): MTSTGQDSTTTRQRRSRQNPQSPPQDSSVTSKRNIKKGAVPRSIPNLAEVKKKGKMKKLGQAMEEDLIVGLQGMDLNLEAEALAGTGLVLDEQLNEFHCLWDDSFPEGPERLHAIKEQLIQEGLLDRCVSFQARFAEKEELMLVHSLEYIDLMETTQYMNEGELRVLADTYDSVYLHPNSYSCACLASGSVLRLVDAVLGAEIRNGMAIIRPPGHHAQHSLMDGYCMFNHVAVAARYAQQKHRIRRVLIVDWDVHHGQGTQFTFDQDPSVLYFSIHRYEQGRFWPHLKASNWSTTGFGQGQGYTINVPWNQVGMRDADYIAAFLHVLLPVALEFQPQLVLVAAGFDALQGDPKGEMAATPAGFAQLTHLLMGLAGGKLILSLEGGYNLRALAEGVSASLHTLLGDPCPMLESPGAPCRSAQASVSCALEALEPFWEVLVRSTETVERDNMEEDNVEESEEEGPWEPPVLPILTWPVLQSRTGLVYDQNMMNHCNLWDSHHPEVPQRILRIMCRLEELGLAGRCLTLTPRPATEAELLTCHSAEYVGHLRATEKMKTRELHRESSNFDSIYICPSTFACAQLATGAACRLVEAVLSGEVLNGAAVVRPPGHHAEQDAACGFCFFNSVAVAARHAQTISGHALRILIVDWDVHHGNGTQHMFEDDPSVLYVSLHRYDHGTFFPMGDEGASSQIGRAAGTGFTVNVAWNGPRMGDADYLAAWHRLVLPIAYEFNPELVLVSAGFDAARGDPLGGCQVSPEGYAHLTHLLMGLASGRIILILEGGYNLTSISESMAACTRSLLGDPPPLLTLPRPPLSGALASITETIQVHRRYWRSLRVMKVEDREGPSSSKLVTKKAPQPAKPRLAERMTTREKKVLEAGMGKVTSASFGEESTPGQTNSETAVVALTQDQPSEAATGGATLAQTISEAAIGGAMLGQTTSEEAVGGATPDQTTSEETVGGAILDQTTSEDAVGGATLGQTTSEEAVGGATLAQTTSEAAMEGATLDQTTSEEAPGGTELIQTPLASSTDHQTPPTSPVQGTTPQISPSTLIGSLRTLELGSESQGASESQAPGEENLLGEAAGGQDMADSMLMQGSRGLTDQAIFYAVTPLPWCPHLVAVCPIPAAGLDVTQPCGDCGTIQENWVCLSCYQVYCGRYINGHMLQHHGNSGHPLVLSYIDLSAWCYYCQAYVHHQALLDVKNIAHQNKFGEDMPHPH
The settings on record: at 10 µM.
As to `Clc1ccc(N2CCN(Cc3c[nH]c4ncccc34)CC2)cc1`, the inhibition (as a rule, the drop in the measured response relative to a control, in per cent) is 0.96%.

The record behind these values is ChEMBL document CHEMBL4808148, “HDAC6 screening dataset using tau-based substrate in an enzymatic assay yields selective inhibitors and activators” (2021).
